Results published in patent US9289381B2, “Stabilization and storage of biological pharmaceutical compositions” (The University of North Carolina at Charlotte, priority 2009, dated 2016).
Read-outs that look alike come from different tables or passages of the source.

How the values were obtained:
[1] = pH-buffered
[2] = cited from earlier work
[3] = in vivo, iv; cited from earlier work
[4] = test system: metastatic renal cell cancer (RCC) and malignant melanoma; settings: cited from earlier work
[5] = Circular dichroism of IL-2: secondary structure and melting temperature (Example 5); format: physicochemical
[6] = IL-2 in 30 mM CDHP, pH 7.40, 25° C.
[7] = IL-2 in 30 mM CDHP, rescanned after temperature scan
[8] = IL-2 in 30 mM NaH2PO4, pH 7.40, 25° C.
[9] = IL-2 in 30 mM NaH2PO4, rescanned after temperature scan
[10] = IL-2 in 185 mM CDHP, pH 7.40, 25° C.
[11] = IL-2 in 185 mM CDHP, rescanned after temperature scan
[12] = IL-2 in 680 mM CDHP, pH 7.40, 25° C.
[13] = IL-2 in 680 mM CDHP, rescanned after temperature scan

IL-2: Interleukin-2, a single 133 amino acid polypeptide of molecular weight 15.5 kDa; lyophilized IL-2, human (GenScript) in Example 5
IL-2 melting (unfolding) temperature Tm ([1]; with 30 mM CDHP): 52.3 °C | IL-2 melting (unfolding) temperature Tm ([1]; without C-DHP): 53.9 °C | Tm determined calorimetrically ([2]; 1 mg/mL IL-2 in 20 mM sodium phosphate, 150 mM NaCl, pH 7.5 (Wang, 2008)): 66 °C | temperature of irreversible denaturation and aggregation in solution ([2]; Sasaoki 1992): > 44 °C | plasma half-life, initial elimination phase [3]: 7 to 14 min | patients with durable cancer remission ([4]; high-dose bolus rIL-2 i.v. (Sparano 1993)): 5-10% | patients with disease regression ([4]; stage IV metastatic melanoma, systemic i.v.): 15-20% | increase of Tm ([5]; 680 mM CDHP vs 30 mM NaH2PO4): 12.5 °C | Secondary Structure Content, Turns [5, 6]: 0.17 | Secondary Structure Content, Unordered [5, 6]: 0.23 | Secondary Structure Content, α-Helix [5, 6]: 0.42 | Secondary Structure Content, β-Sheet [5, 6]: 0.18 | Rescan, % Change, Turns [5, 7]: 6% | Rescan, % Change, Unordered [5, 7]: 70% | Rescan, % Change, α-Helix [5, 7]: −43% | Secondary Structure Content, Turns [5, 8]: 0.17 | Secondary Structure Content, Unordered [5, 8]: 0.30 | Secondary Structure Content, β-Sheet [5, 8]: 0.13 | Secondary Structure Content, α-Helix ([5]; IL-2 in 30 mM NaH2PO4, pH 7.40, 25° C., CDSSTR reference set 7): 0.40 | Rescan, % Change, Turns [5, 9]: 6% | Rescan, % Change, β-Sheet [5, 9]: 54% | Rescan, % Change, α-Helix ([5]; IL-2 in 30 mM NaH2PO4, rescanned at 25° C. after temperature scan): −40% | Secondary Structure Content, Turns [5, 10]: 0.17 | Secondary Structure Content, Unordered [5, 10]: 0.19 | Secondary Structure Content, α-Helix [5, 10]: 0.47 | Secondary Structure Content, β-Sheet [5, 10]: 0.19 | Rescan, % Change, Turns [5, 11]: 18% | Rescan, % Change, Unordered [5, 11]: 116% | Rescan, % Change, α-Helix [5, 11]: −66% | Rescan, % Change, β-Sheet [5, 11]: 32% | Secondary Structure Content, Turns [5, 12]: 0.13 | Secondary Structure Content, Unordered [5, 12]: 0.16 | Secondary Structure Content, α-Helix [5, 12]: 0.53 | Secondary Structure Content, β-Sheet [5, 12]: 0.17 | Rescan, % Change, Turns [5, 13]: 38% | Rescan, % Change, Unordered [5, 13]: 181% | Rescan, % Change, α-Helix [5, 13]: −68% | Rescan, % Change, β-Sheet [5, 13]: 24% | appearance after thermal scan ([5]; IL-2 solutions with 185 and 680 mM CDHP): macroscopically observable precipitates
